Data on one substance can be found in patent US10548861B2 (Academia Sinica, priority 2015, dated 2020).

The test system of this assay is primary B-ALL vs normal human tissues. In words: Therapeutic window vs five normal tissues. The class given is cell-based.

For the substance 4-Hydroperoxycyclophosphamide, the Therapeutic window by setting is: (B-ALL (reference)) 1.00; (CD34+ relative to B-ALL) 0.40.
